Patent US11242351B2, “Tricyclic inhibitors of the BCL6 BTB domain protein-protein interaction and uses thereof” (priority 2017, dated 2022)

Tested on: Karpas422 cells
Assay: Tumor cell growth inhibition assay
Type: cell-based
Conditions: Homo sapiens, KARPAS-422, 144 h, read-out: GI Karpas EC50
Protocol: Tumor Cell Growth Inhibition Assay:
Karpas422 cells were seeded into a 96-well plate at 2,000 cells/well in 150 μl medium (Alpha-MEM containing 10% FBS, […] Normocin, and […] Gentamycin, Invitrogen). A HP D300 digital dispenser was used to dose cells with DMSO or test compounds across a 10-point range of concentrations (high dose of 5 μM), and cultures were grown in a humidified 5% CO2 incubator at 37° C. After six days, plates were removed from incubator and equilibrated to room temperature. An equal volume of ATPlite assay reagent was added to each well, and samples were processed according to the manufacturer's instructions (Perkin Elmer). The luminescent signal was measured using an Envision plate reader equipped with a US-Luminescence detector.

Row | Structure (SMILES) | EC50 [nM]
1 | COc1c(O)c(C(N)=O)cc(-c2cn(CC(=O)Nc3cc(N4CCN(C)C[C@@H]4C)nc(F)c3Cl)c3nc4n(c(=O)c23)CCC4)c1F [I-15, (S)-5-(1-(2-((3-chloro-6-(2,4-dimethylpiperazin-1-yl)-2-fluoropyridin-4-yl)amino)-2-oxoethyl)-4-oxo-4,6,7,8-tetrahydro-1H-dipyrrolo[1,2-a:2′,3′-d]pyrimidin-3-yl)-4-fluoro-2-hydroxy-3-methoxybenzamide] | 649
2 | COc1c(O)c(C(N)=O)cc(-c2cn(CC(=O)Nc3cc(N4CCOC[C@@H]4C)nc(F)c3Cl)c3nc4n(c(=O)c23)CCC4)c1F [I-16, (S)-5-(1-(2-((3-chloro-2-fluoro-6-(3-methyl-morpholino)pyridin-4-yl)amino)-2oxoethyl)-4-oxo-4,6,7,8-tetra-hydro-1H-dipyrrolo [1,2-a:2′,3′-d]pyri-midin-3-yl)-4-fluoro-2-hydroxy-3-methoxy-benzamide] | 778
